Measured values: ChEMBL document CHEMBL4837240 (J Med Chem, 2021)

Legend:
Homo sapiens [1] = species: Homo sapiens; test: Selectivity ratio of IC50 for human VEGFR1 to IC50 for human VEGFR3
Homo sapiens [2] = species: Homo sapiens; test: Selectivity ratio of IC50 for human VEGFR2 to IC50 for human VEGFR3

| Structure (SMILES) | Ratio IC50 (Homo sapiens [1]) | Ratio IC50 (Homo sapiens [2]) |
| --- | --- | --- |
| CCn1c(N)c(C(=O)NC)c(=O)c2ccc(C#C[C@@](C)(O)COC)nc21 | 130 | 10 |
| CN1CCN(c2ccc(-c3cc4c(N5CCN(C(=O)Nc6ccc(Cl)c(C(F)(F)F)c6)CC5)ncnc4s3)cc2)CC1 | > 100 | > 100 |
